Values quoted from earlier work, collected in patent US10100331B2, “Reagent for gene-drug therapeutics” (Agency for Science, Technology and Research, priority 2012, dated 2018).

Chains of the proteins cited; added tags and fusions are not shown. Lines headed by an entry give the natural chain unless they say otherwise; changes in a name come on top.
UniProt O15379: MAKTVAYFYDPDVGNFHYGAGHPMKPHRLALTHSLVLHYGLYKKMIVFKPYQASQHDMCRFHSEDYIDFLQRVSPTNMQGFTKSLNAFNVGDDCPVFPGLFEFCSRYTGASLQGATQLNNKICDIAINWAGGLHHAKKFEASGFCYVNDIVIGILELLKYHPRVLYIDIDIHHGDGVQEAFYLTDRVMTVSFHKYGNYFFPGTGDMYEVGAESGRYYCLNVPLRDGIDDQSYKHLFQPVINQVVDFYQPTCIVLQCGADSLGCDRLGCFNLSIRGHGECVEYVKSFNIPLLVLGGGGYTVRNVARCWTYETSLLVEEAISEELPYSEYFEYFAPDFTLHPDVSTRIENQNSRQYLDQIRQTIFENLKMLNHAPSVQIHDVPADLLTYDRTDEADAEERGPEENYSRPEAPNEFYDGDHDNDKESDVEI

Target: HDAC3 (Homo sapiens, UniProt O15379)
Details: cited from earlier work

For `CCCC(CCC)C(=O)O` [Valproic Acid], the IC50 is given as 4.18 mM.
